Measured values taken from US10172835B2, “Anticancer agent composition” (J-Pharma Co., Ltd., priority 2014, dated 2019).

Test system: KO99L cells
Test: Combination studies with COMPOUND-JP, WST-1 viability, Chou-Talalay combination index
Assay type: cell-based, murine
Details: 48 h, suboptimal concentrations, in combination with COMPOUND-JP

SMILES: CC(C)C[C@H](NC(=O)[C@H](Cc1ccccc1)NC(=O)c1cnccn1)B(O)O [velcade, bortezomib, reference compound]
- combination effect with COMPOUND-JP on metabolic activity/cell survival (Combination Index): potentiate
